# Values of other authors, collected in PMC1307573 (Journal of Insect Science, 2005).
# Settings: NO donor; cited from earlier work
compound,measurement,value
"CCN(CC)/[N+]([O-])=N/O [DEA-NONOate, diethylamine- (DEA)-NONOate]",half-life,16 min
